Literature values in patent US20210093730A1, “BIOMARKERS FOR ANTIBODY-DRUG CONJUGATE MONOTHERAPY OR COMBINATION THERAPY” (Immunomedics, Inc., priority 2019, published 2021).

Test system: metastatic colorectal cancer (mCRC)
Conditions: cited from earlier work
[1] = patients with RAS/BRAF mutations in ctDNA

For cetuximab: anti-EGFR antibody, the overall survival [1] is given as 3.1 months, the progression-free survival [1] is given as 1.8 months and the overall survival (patients without mutations) is given as 9.4 months. For the same substance, the progression-free survival (patients without mutations) was 4.9 months.

Where two headings read alike, the source gives them in different places.
